{"source": "ChEMBL document CHEMBL2163234", "about": "“Design and characterization of optimized adenosine A₂A/A₁ receptor antagonists for the treatment of Parkinson's disease” (J Med Chem, 2012)", "target": "Adenosine receptor A2a (Homo sapiens, UniProt P29274)", "assay": "Antagonist activity at human Adenosine receptor A2a assessed as inhibition of cAMP production", "type": "functional"}
{"smiles": "CC(C)n1cc(-c2ncc(N)nc2-c2ccc(F)cc2)ccc1=O", "values": [{"measurement": "Ki", "result": 1.8, "unit": "nM"}]}
